This series can be described thus: FBMN analysis of short peptides in small intestine contents and serum after oral DHG. Particulars: small intestine contents, C57 mice, peptides smaller than 690 Da.

Each structure is given as a SMILES string.

For the molecule `CC[C@H](C)[C@H](N)C(=O)N1CCC[C@H]1C(=O)N[C@H](C(=O)O)[C@@H](C)CC` [Ile-Pro-Ile], the “Peptide signal (feature intensity) in the small intestine, 30 min” value (30 min after oral DHG) worked out at 6.92E+05. For the same molecule, the “Peptide signal (feature intensity) in the small intestine, 60 min” value (60 min after oral DHG) was determined as 4.73E+05. The “Peptide signal (feature intensity) in the small intestine, 120 min” value (120 min after oral DHG) was 1.27E+06. Moreover, the “Peptide signal (feature intensity) in the small intestine, 240 min” value (240 min after oral DHG) was 1.88E+06.

The values above are taken from publication PMC12616683, “In Vivo Atlas of Neuroprotective Cyclic Dipeptides Derived from Food Gelatin Using Peptidomics and Feature-Based Molecular Networking” (Journal of Agricultural and Food Chemistry, 2025).
